Measurements published in ChEMBL document CHEMBL2321678, “Incorporation of non-natural amino acids improves cell permeability and potency of specific inhibitors of proteasome trypsin-like sites” (J Med Chem, 2013).

Sequences of proteins named here, by UniProt entry; tags and fusion partners are left off. A change or cut given only in a name is not applied to a line headed by its entry.
UniProt P28074: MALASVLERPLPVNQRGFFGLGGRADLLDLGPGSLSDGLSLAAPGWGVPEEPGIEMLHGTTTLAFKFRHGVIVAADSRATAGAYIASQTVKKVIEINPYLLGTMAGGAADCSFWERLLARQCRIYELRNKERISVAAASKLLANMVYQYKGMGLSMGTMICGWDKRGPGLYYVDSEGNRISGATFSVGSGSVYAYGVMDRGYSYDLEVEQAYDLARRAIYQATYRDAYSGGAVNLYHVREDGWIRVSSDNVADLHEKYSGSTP

Experiments:
[1] = molecular target: T1, Proteasome Macropain subunit MB1 (Homo sapiens, UniProt P28074); assay: Inhibition of chymotrypsin-like activity of proteasome in human RPMI-8226 cells after 6 hrs by proteasomeGlo assay; assay type: cell-based
Method in brief: (§1)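 Cells then pelleted, resuspended in PBS and mixed with site-specific luminogenic substrates in lysis/assay buffer. Mixing 3 min, then 17 min in the dark before luminescence, triplicate per substrate/point. Activity as % of mock; IC50 from a four-parameter nonlinear fit.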

[2] = molecular target: T1, Proteasome Macropain subunit MB1; assay: Inhibition of chymotrypsin-like activity of proteasome in human NCI-H929 cells after 6 hrs by proteasomeGlo assay; assay type: cell-based; method in brief: as §1
[3] = molecular target: T1, Proteasome Macropain subunit MB1; assay: Inhibition of chymotrypsin-like activity of proteasome beta 5 subunit in HEK-293T cell lysates using BODIPY-BODIPY-TMR-epoxomicin as probe after 1 hr by SDS-PAGE analysis
Method in brief: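 Then 1 h at 37 °C with BODIPY-TMR-Ahx3L3-vs or BODIPY-TMR-epoxomicin (0.5 µM). Three independent experiments; IC50 fitted.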

[4] = molecular target: T1, Proteasome Macropain subunit MB1; assay: Competitive inhibition of chymotrypsin-like activity of proteasome beta 5 subunit in HEK293T cells after 4 hrs by SDS-PAGE analysis in presence of BODIPY-BODIPY-TMR-epoxomicin; assay type: cell-based, HEK-293T
[5] = Inhibition of chymotrypsin-like activity of rabbit 26s proteasome beta 5 subunit assessed as hydrolysis of Suc-LLVY-amc fluorogenic substrate preincubated for 30 mins followed by substrate addition measured for 30 mins by fluorescence plate reader analysis; set-up: species or system Oryctolagus cuniculus
Method in brief: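 Purified rabbit-muscle 26S proteasome (final 3 µg/mL) preincubated 30 min with a range of inhibitor concentrations. Slopes expressed as % of mock; IC50 by four-parameter least-squares fit.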

SMILES	IC50 [1] [µM]	IC50 [2] [µM]	IC50 [3] [µM]	IC50 [4] [µM]	IC50 [5] [µM]
CC(C)C[C@H](NC(=O)[C@H](Cc1ccc(N)cc1)NC(=O)[C@H](Cc1ccccc1)N=[N+]=[N-])C(=O)N[C@H](/C=C/S(C)(=O)=O)Cc1ccc(CN)cc1	7.2	3.6	2.8	–	–
Cc1c(O)cccc1C(=O)N[C@H](C(=O)N[C@@H](CO)C(=O)N[C@H](/C=C/S(C)(=O)=O)Cc1ccc(CN)cc1)C(C)C	15	13	–	–	–
CC(C)C[C@H](NC(=O)[C@H](Cc1ccncc1)NC(=O)[C@H](Cc1ccccc1)N=[N+]=[N-])C(=O)N[C@H](/C=C/S(C)(=O)=O)Cc1ccc(CN)cc1	–	10.5	5.5	> 50	1.05
